Values of other authors, collected in paper PMC5684876.

By UniProt entry, the sequences of proteins in these tests, tags left out.
UniProt P40337, whole entry: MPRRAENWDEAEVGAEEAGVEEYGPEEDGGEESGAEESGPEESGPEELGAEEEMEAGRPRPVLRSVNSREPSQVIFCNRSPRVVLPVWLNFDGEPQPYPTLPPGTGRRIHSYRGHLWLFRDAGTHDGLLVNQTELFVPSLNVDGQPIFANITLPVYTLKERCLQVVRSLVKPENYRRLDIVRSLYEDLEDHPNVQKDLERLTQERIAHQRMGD
UniProt Q16665, whole entry: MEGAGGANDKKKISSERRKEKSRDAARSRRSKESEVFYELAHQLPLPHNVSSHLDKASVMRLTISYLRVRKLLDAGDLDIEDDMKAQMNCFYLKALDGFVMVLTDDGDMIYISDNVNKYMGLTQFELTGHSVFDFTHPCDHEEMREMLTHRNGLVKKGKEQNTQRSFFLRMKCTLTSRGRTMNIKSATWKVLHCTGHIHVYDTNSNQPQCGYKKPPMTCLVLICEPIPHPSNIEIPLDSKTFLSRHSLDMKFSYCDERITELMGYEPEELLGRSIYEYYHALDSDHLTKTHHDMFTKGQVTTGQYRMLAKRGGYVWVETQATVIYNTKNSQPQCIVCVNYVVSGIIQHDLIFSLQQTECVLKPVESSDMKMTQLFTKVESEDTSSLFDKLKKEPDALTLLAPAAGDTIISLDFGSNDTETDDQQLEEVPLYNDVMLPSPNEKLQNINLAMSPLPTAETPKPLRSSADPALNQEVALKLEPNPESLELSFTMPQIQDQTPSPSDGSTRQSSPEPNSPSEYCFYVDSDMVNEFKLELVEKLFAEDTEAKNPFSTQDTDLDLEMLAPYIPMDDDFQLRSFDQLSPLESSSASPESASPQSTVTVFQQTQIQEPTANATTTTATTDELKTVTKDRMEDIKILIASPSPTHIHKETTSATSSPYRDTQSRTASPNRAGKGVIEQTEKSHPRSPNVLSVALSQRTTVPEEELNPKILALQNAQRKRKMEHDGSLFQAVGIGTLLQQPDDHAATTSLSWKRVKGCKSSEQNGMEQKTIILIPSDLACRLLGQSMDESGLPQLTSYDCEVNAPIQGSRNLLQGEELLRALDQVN

Biological target: VHL (Homo sapiens) (UniProt P40337)

Kd: 200 nM
Substance: HIF1α 10-mer fragment (from UniProt Q16665)
